Experimental data from ChEMBL document CHEMBL1155476, “A vHTS approach for the identification of beta-adrenoceptor ligands” (Bioorg Med Chem Lett, 2010).

By UniProt entry, the sequences of proteins in these tests, tags left out.
UniProt P07550, whole entry: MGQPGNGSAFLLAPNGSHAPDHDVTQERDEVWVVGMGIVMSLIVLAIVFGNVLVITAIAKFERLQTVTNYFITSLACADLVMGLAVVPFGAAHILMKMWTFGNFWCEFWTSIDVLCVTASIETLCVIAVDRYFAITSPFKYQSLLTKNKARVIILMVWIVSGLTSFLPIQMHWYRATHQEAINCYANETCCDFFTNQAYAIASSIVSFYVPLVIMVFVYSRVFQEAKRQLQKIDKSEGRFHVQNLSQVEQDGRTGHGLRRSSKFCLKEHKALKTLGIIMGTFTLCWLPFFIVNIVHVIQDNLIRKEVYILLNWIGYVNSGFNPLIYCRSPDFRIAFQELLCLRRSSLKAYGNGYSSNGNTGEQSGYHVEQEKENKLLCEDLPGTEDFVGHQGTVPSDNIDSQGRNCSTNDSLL

Target: Beta-2 adrenergic receptor (Homo sapiens, UniProt P07550)
Test: biochemical

Q: C=CCc1ccccc1OCC(O)CN1CCC(CN2C(=O)c3cccc4cccc(c34)C2=O)CC1 (stereo unspecified) was tested. Which Ki did it give?
A: 80 nM
